Measured values reported in patent publication US10058534B2, “Benzothiophene derivatives and compositions thereof as selective estrogen receptor degraders” (NOVARTIS AG, priority 2013, dated 2018).

Sequences of proteins named here, by UniProt entry; tags and fusion partners are left off.
UniProt P03372, whole entry: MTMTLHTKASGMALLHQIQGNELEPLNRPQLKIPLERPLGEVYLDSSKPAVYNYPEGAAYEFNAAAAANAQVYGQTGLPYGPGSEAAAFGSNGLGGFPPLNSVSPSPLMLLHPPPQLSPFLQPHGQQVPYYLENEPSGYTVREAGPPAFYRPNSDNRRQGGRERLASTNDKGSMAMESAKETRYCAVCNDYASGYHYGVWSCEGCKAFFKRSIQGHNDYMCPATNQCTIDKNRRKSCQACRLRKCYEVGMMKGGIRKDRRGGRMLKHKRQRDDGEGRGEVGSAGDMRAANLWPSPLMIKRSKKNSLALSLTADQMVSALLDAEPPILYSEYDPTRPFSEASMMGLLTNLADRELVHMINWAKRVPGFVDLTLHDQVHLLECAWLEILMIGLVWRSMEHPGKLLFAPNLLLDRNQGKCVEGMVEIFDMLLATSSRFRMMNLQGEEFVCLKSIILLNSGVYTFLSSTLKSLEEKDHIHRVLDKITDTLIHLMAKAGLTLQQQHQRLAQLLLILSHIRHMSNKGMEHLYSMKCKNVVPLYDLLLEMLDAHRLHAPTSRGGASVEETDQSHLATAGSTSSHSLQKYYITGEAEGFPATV

Legend:
[1] = molecular target: ERα (Homo sapiens (Human), UniProt P03372); test: ERα degradation (MCF7 cells), in-cell Western; assay type: cell-based; settings: remaining ERα protein at 10 μM ligand, relative to DMSO control
[2] = molecular target: ER (endogenous, MCF7 cells) (Homo sapiens (Human), UniProt P03372); test: ER transcription assay (MCF7 cells), ERE-luciferase reporter; assay type: cell-based; settings: inflection point of the inhibition of transcription in MCF7 cells; 0.1 nM estradiol, 24 hours

Structure (SMILES) | % ERα remaining [1] | IC50 [2]
Cc1cc(Oc2c(-c3ccc(O)cc3)sc3cc(O)ccc23)ccc1/C=C/C(=O)O [Example 56, (E)-3-(4-((6-hydroxy-2-(4-hydroxyphenyl)-benzo[b]thiophen-3-yl)oxy)-2-methylphenyl)acrylic acid] | 27% | –
Cc1nnc(/C=C/c2ccc(Oc3c(-c4ccccc4C(C)C)sc4cc(O)ccc34)cc2)o1 [Example 102, (E)-2-(2-isopropylphenyl)-3-(4-(2-(5-methyl-1,3,4-oxadiazol-2-yl)vinyl)phenoxy)benzo [b]thiophen-6-ol] | 25% | 1.2 nM
Cc1cc(F)ccc1-c1sc2cc(O)ccc2c1Oc1ccc(/C=C/c2nnc(C)n2C)cc1 [Example 106, (E)-3-(4-(2-(4,5-dimethyl-4H-1,2,4-triazol-3-yl)vinyl)phenoxy)-2-(4-fluoro-2-methylphenyl)benzo[b] thiophen-6-ol] | – | 38 nM
CCc1cccc(CC)c1-c1sc2cc(O)ccc2c1Oc1ccc(/C=C/C(=O)O)cc1 [Example 130, (E)-3-(4-((2-(2,6-diethylphenyl)-6-hydroxybenzo[b]thiophen-3-yl)oxy)phenyl)acrylic acid] | – | 488 nM
